Target: Recombinant Human (rh) DPP1 (Homo sapiens, UniProt P53634)
Experiment: Fluorescence Assay for Recombinant Human (rh) DPP1
Format: biochemical
Details: rhDPP1, substrate H-Gly-Arg-AMC, pH5.0, 22° C., pre-incubated 30-60 min; read-out: DPP1 activity, pIC50 (converted)
Description: Fluorescence Assay for Recombinant Human (rh) DPP1
The activity of DPP1 was determined by measuring the enzymatic release of aminomethyl coumarin (AMC) from the peptide substrate (H-Gly-Arg-AMC), which leads to an increase in fluorescence intensity at λex=350 nm and λem=450 nm. The assay was carried out in black 384 well plates in a final volume of 50 μl at 22° C. The assay conditions contained the following: 25 mM piperazine buffer pH5.0; 50 mM NaCl, 5 mM DTT; 0.01% (v/v) Triton X-100; 100 μM H-Gly-Arg-AMC and rhDPP1 (˜50 μM). Potential inhibitors were made up in DMSO and then diluted in the assay to give a final concentration of not exceeding 1% (v/v) DMSO. A 10-point half-log dilution series of the inhibitors (highest concentration typically 10 μM) was tested and the pIC50 determined using a 4-paramater logistic equation in a non-linear curve fitting routine. A standard DPP1 inhibitor (vinyl sulfone, see below, or Example 24 from WO2009/074829) was used as a positive control in the assay. Routinely, inhibitors were pre-incubated with rhDPP1 for 30-60 min prior to the addition of the peptide substrate to start the reaction for a further 60 min at 22° C. After that the plates were immediately read in a fluorescence plate reader using the above emission and excitation wavelengths [modified from Kam, C M, Gotz, M G, Koot, G, McGuire, M J, Thiele, D L, Hudig, D & Powers, J C (2004). […]

The chains behind the UniProt entries cited, without tags or fusion partners. Residues count along the entry.
UniProt P53634, 395-463 limits assumed: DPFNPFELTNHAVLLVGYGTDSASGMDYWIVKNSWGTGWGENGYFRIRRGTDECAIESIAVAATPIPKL
UniProt P53634, 25-134 limits assumed: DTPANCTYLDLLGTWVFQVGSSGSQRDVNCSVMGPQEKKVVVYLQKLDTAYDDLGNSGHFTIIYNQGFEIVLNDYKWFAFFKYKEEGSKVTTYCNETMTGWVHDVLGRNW
UniProt P53634, 231-394 limits assumed: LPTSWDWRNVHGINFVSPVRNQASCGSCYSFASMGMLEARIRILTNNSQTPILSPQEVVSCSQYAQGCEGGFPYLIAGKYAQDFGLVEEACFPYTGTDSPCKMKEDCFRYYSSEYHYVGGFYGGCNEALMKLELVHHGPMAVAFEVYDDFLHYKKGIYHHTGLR

Compound N#Cc1ccc(-c2ccc(C[C@@H](C#N)NC(=O)C3(N)CCOCC3)cc2)cc1 [Example 3, (S)-4-Amino-N-(1-cyano-2-(4′-cyanobiphenyl-4-yl)ethyl)tetrahydro-2H-pyran-4-carboxamide] has an IC50 of 0.794 nM.
